Assay results reported in ChEMBL document CHEMBL5291721, “A preclinical secondary pharmacology resource illuminates target-adverse drug reaction associations of marketed drugs” (Nat Commun, 2023).

Chains of the proteins cited; added tags and fusions are not shown. Lines headed by an entry give the natural chain unless they say otherwise; changes in a name come on top.
UniProt P08588, whole entry: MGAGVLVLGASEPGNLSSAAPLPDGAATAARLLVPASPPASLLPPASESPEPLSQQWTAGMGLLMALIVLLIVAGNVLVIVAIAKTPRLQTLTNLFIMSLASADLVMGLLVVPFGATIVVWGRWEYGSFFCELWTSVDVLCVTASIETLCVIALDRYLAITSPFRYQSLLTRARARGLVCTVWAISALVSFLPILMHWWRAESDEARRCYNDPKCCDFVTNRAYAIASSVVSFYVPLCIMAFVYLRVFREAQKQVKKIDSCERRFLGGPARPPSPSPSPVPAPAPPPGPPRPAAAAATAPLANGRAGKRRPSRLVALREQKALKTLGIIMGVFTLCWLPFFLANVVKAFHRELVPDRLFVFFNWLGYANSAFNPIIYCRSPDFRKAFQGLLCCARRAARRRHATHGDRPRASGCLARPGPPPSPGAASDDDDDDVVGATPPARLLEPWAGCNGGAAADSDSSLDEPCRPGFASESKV
UniProt P21728, whole entry: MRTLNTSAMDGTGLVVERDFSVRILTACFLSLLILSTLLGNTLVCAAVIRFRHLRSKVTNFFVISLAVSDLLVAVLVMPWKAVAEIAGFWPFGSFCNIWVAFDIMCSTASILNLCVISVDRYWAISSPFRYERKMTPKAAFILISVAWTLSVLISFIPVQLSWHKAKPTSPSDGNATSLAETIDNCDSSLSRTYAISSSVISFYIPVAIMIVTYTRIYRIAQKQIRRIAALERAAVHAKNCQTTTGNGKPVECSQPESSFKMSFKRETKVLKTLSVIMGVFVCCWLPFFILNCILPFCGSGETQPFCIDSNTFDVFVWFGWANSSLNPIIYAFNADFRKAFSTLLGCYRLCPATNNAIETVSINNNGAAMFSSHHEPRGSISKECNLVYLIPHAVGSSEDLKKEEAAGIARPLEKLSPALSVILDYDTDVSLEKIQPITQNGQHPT
UniProt P18825, whole entry: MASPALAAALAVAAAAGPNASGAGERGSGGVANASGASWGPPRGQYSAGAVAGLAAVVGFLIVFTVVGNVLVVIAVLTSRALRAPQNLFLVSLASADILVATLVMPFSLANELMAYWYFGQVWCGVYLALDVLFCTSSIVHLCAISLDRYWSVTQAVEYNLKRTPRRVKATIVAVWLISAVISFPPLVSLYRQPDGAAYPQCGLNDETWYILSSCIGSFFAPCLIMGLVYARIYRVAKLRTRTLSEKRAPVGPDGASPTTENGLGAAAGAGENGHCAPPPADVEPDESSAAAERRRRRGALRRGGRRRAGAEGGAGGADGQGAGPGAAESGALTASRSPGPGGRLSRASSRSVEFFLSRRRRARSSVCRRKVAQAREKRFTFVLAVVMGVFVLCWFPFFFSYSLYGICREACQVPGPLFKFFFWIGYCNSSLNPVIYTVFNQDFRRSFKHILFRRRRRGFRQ
UniProt Q13936, whole entry: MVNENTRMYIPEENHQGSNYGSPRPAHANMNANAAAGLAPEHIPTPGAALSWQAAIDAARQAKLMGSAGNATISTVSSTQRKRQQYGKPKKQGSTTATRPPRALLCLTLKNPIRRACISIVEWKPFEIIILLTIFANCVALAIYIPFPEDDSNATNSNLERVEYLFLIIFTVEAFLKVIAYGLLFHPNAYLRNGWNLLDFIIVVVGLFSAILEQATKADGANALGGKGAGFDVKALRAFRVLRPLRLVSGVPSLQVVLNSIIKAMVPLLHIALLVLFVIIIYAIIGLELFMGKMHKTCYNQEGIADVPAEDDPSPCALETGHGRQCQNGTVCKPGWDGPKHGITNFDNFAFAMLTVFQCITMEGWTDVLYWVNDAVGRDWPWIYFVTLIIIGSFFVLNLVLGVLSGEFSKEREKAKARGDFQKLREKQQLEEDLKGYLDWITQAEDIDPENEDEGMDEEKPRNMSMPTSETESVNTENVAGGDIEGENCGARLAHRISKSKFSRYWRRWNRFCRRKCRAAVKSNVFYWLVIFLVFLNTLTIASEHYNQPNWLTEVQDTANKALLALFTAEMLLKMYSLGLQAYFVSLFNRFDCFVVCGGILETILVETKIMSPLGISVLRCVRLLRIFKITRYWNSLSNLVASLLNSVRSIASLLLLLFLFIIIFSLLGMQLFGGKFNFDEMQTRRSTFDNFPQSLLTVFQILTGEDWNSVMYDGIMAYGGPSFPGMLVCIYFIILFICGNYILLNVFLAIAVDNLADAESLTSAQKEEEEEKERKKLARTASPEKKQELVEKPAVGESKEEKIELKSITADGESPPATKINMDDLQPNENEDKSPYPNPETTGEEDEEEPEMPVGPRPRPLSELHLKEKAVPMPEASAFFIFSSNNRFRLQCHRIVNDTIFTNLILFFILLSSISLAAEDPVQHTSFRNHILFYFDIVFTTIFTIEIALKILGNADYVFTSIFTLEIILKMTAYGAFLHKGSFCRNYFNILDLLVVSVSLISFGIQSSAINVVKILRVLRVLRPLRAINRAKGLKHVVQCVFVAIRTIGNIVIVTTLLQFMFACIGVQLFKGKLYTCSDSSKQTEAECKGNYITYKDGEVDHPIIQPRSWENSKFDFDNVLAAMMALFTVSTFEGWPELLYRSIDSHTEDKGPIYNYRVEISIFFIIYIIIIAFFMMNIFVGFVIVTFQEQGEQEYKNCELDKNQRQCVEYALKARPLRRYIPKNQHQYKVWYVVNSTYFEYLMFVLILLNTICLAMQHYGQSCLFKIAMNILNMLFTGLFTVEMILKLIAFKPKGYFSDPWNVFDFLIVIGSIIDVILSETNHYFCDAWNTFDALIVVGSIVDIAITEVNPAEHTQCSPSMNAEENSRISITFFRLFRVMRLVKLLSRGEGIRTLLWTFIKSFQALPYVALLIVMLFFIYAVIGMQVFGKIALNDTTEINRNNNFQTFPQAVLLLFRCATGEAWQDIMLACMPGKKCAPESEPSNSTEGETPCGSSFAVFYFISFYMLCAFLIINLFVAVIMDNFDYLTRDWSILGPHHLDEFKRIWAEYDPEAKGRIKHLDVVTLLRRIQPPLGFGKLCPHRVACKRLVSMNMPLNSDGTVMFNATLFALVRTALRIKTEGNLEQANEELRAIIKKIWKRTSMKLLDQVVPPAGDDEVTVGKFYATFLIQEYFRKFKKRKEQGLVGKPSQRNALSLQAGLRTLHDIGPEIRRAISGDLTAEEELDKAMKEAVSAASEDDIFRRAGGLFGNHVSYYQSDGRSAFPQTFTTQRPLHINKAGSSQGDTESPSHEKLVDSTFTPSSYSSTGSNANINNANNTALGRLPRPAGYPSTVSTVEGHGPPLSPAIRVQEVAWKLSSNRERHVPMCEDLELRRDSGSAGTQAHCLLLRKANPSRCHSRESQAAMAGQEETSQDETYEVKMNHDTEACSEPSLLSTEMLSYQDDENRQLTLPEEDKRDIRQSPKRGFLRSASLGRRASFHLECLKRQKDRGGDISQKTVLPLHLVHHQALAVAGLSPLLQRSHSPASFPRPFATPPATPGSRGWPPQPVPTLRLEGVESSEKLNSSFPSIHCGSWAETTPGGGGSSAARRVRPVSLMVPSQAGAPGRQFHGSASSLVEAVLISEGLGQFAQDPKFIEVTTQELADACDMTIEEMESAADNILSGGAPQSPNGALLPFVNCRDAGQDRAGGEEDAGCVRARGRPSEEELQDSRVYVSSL
UniProt Q14524, whole entry: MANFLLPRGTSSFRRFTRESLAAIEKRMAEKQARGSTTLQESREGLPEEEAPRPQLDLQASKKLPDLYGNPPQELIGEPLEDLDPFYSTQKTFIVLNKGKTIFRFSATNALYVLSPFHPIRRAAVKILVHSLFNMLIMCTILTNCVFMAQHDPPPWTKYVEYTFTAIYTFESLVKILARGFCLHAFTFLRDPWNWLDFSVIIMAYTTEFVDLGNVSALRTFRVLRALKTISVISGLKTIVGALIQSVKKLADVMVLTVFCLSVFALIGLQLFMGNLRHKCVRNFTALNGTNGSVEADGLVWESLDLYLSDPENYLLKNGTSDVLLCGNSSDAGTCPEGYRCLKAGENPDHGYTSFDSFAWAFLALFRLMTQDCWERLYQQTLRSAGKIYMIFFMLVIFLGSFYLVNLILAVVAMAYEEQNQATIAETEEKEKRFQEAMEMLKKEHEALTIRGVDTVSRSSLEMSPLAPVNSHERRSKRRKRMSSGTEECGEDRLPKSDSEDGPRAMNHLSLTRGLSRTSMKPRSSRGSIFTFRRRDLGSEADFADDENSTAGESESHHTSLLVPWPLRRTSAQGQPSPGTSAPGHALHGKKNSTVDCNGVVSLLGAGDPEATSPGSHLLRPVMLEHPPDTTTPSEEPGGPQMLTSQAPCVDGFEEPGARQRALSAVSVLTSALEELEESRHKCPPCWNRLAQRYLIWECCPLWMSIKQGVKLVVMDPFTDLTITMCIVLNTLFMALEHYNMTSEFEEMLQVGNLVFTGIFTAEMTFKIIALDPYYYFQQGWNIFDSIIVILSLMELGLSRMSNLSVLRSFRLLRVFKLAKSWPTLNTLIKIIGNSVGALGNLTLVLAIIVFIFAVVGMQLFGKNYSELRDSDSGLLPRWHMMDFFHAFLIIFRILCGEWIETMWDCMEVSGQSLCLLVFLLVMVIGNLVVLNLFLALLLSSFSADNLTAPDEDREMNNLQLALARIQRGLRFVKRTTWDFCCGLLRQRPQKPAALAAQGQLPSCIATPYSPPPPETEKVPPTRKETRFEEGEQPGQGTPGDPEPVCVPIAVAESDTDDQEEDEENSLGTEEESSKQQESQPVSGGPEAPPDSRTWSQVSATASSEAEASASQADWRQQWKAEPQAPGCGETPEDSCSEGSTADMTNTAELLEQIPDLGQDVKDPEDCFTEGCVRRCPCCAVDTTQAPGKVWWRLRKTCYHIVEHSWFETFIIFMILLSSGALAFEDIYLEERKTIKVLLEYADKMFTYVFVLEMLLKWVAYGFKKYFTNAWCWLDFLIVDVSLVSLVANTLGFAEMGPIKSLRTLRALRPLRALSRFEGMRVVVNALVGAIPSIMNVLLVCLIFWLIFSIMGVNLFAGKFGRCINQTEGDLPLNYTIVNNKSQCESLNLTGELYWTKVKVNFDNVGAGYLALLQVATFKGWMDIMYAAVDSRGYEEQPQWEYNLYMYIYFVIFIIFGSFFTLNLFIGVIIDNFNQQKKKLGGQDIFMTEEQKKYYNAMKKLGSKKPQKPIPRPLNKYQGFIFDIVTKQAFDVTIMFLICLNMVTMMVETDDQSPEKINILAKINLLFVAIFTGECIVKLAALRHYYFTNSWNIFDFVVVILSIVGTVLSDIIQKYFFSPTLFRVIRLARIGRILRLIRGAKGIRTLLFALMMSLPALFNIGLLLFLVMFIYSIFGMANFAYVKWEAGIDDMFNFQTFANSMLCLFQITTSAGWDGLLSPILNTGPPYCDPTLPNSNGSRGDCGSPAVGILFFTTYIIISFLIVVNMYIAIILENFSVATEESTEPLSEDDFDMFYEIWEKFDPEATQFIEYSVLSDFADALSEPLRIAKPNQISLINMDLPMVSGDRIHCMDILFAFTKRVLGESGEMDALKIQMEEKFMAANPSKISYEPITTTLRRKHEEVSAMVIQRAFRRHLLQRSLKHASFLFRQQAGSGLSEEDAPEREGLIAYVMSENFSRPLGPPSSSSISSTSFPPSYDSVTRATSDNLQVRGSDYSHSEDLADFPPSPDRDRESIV
UniProt P41595, whole entry: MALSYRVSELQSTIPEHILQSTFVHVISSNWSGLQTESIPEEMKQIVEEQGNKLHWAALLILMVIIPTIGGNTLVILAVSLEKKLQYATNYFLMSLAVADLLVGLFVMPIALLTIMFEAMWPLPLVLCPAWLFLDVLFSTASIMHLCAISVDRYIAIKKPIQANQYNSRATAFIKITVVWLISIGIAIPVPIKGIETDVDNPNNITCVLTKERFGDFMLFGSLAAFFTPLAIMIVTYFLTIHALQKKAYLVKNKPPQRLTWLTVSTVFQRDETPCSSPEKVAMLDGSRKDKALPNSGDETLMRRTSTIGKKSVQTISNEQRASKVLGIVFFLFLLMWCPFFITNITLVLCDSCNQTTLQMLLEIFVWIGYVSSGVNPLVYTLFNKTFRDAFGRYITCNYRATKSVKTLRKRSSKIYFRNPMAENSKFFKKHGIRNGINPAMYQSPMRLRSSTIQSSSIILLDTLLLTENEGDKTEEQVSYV
UniProt P28335: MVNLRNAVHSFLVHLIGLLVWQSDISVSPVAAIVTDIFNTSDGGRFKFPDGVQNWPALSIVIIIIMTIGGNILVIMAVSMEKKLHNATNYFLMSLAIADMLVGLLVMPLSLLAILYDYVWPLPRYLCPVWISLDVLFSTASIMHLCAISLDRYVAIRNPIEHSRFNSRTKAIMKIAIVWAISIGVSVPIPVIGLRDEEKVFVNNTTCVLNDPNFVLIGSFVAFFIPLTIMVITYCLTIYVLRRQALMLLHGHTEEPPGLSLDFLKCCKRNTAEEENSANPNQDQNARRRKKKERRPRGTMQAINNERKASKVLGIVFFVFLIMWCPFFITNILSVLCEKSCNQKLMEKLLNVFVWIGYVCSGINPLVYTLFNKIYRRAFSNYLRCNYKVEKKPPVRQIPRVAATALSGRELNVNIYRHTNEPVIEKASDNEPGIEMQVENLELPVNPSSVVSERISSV

How the values were obtained:
[1] = target: Type-1 angiotensin II receptor (Homo sapiens, UniProt P30556)
[2] = target: T1, 5-hydroxytryptamine receptor 1A (Homo sapiens, UniProt P08908); assay type: functional, cell-based
[3] = target: T1, 5-hydroxytryptamine receptor 1A
[4] = target: T1, 5-hydroxytryptamine receptor 1A; assay type: functional, cell-based; remark: listed apart in the source
[5] = target: Beta-1 adrenergic receptor (Homo sapiens, UniProt P08588); assay type: functional
D(1A) dopamine receptor [6] = target: T2, D(1A) dopamine receptor (Homo sapiens, UniProt P21728); assay type: functional, cell-based
D(1A) dopamine receptor [7] = target: T2, D(1A) dopamine receptor
[8] = target: T3, Alpha-2A adrenergic receptor (Homo sapiens, UniProt P08913); assay type: functional, cell-based
[9] = target: Alpha-2C adrenergic receptor (Homo sapiens, UniProt P18825); assay type: functional
[10] = target: T3, Alpha-2A adrenergic receptor
[11] = target: T3, Alpha-2A adrenergic receptor; assay type: functional, cell-based; remark: listed apart in the source
[12] = target: T3, Alpha-2A adrenergic receptor; remark: listed apart in the source
[13] = target: Voltage-dependent L-type calcium channel subunit alpha-1C (Homo sapiens, UniProt Q13936); assay type: functional, cell-based
[14] = target: Sodium channel protein type 5 subunit alpha (Homo sapiens, UniProt Q14524); assay type: functional, cell-based
[15] = target: T4, 5-hydroxytryptamine receptor 2B (Homo sapiens, UniProt P41595); assay type: functional, cell-based
[16] = target: 5-hydroxytryptamine receptor 2C (Homo sapiens, UniProt P28335)
[17] = target: T4, 5-hydroxytryptamine receptor 2B
[18] = target: T4, 5-hydroxytryptamine receptor 2B; assay type: functional, cell-based; remark: listed apart in the source
D(3) dopamine receptor = D(3) dopamine receptor (Homo sapiens, UniProt P35462)
Acetylcholinesterase = Acetylcholinesterase (Homo sapiens, UniProt P22303); assay type: functional
[19] = target: Kappa-type opioid receptor (Homo sapiens, UniProt P41145)
Mu-type opioid receptor [20] = target: T5, Mu-type opioid receptor (Homo sapiens, UniProt P35372)
Mu-type opioid receptor [21] = target: T5, Mu-type opioid receptor; experiment: biochemical; assay type: functional
[22] = target: Alpha-2B adrenergic receptor (Homo sapiens, UniProt P18089)
[23] = target: Beta-2 adrenergic receptor (Homo sapiens, UniProt P07550)
[24] = target: T3, Alpha-2A adrenergic receptor; remark: listed apart in the source
Further: assay procedure not described here.

Compound: CCCc1nc2c(C)cc(-c3nc4ccccc4n3C)cc2n1Cc1ccc(-c2ccccc2C(=O)O)cc1
- AC50 [1]: 1 nM

Compound: CNS(=O)(=O)Cc1ccc2[nH]cc(CCN(C)C)c2c1
- AC50 [2]: 38000 nM
- AC50 [3]: 1420 nM
- AC50 [4]: 13000 nM

Compound: C=CCc1ccccc1OCC(O)CNC(C)C (stereo not given) [ALPRENOLOL]
- AC50 [5]: 6 nM

Compound: CC(N)Cc1ccccc1 (stereo not given) [AMPHETAMINE]
- AC50 (D(1A) dopamine receptor [6]): > 30000 nM
- AC50 (D(1A) dopamine receptor [7]): > 10000 nM

Compound: CC(C)C[C@H]1C(=O)N2CCC[C@H]2[C@]2(O)O[C@](NC(=O)[C@@H]3C=C4c5cccc6[nH]c(Br)c(c56)C[C@H]4N(C)C3)(C(C)C)C(=O)N12 [BROMOCRIPTINE]
- AC50 [8]: 612 nM
- AC50 [9]: 1570 nM
- AC50 [10]: 742 nM
- AC50 [11]: > 10000 nM
- AC50 [12]: 53.4 nM

Compound: Cc1nc(Nc2ncc(C(=O)Nc3c(C)cccc3Cl)s2)cc(N2CCN(CCO)CC2)n1 [DASATINIB]
- AC50 [13]: > 50000 nM
- AC50 [14]: > 50000 nM

Compound: CCNC(C)Cc1cccc(C(F)(F)F)c1 (stereo not given) [FENFLURAMINE]
- AC50 [15]: > 30000 nM
- AC50 [16]: > 10000 nM
- AC50 [17]: 4360 nM
- AC50 [18]: > 30000 nM

Compound: CCN1CCC[C@H]1CNC(=O)c1cc(S(N)(=O)=O)ccc1OC [LEVOSULPIRIDE]
- AC50 (D(3) dopamine receptor): 120 nM

Compound: CCc1nn(CCCN2CCN(c3cccc(Cl)c3)CC2)c(=O)n1CCOc1ccccc1 [NEFAZODONE]
- AC50 [16]: 130 nM
- AC50 [8]: 6600 nM
- AC50 [10]: 1420 nM
- AC50 [11]: > 10000 nM

Compound: CO[C@]12C[C@@H](COC(=O)c3cncc(Br)c3)CN(C)[C@@H]1Cc1cn(C)c3cccc2c13 [NICERGOLINE]
- AC50 (Acetylcholinesterase): 692 nM

Compound: COc1ccc2c3c1O[C@H]1C(=O)CC[C@@]4(O)[C@@H](C2)N(C)CC[C@]314 [OXYCODONE]
- AC50 [19]: 2000 nM

Compound: CCN(CC)CCCC(C)Nc1c2ccc(Cl)cc2nc2ccc(OC)cc12 (stereo not given) [QUINACRINE]
- AC50 (Acetylcholinesterase): 928 nM

Compound: Cc1c(C(=O)NN2CCCCC2)nn(-c2ccc(Cl)cc2Cl)c1-c1ccc(Cl)cc1 [RIMONABANT]
- AC50 (Mu-type opioid receptor [20]): 7160 nM
- AC50 (Mu-type opioid receptor [21]): > 30000 nM

Compound: O=C1NCCN1CCN1CCC(c2cn(-c3ccc(F)cc3)c3ccc(Cl)cc23)CC1 [SERTINDOLE]
- AC50 [22]: 2000 nM
- AC50 [8]: > 30000 nM
- AC50 [23]: > 30000 nM
- AC50 [11]: > 30000 nM

Compound: Clc1ccc2nsnc2c1NC1=NCCN1 [TIZANIDINE]
- AC50 [24]: 1300 nM
- AC50 [10]: 136 nM
- AC50 [11]: 115 nM
